Target: DNA-PK (purified DNA-PKcs and Ku70/80) (Homo sapiens, UniProt P78527)
Assay: autophosphorylation, immunoblot for DNA-PKcs phosphoserine […]
Conditions: 10 mM MgCl2, pH 7.5, 27 °C
[1] = 1 mM, sonicated calf thymus DNA, 3 min

Amino acid sequences for entries named in this document (tags omitted).
UniProt P78527, whole entry: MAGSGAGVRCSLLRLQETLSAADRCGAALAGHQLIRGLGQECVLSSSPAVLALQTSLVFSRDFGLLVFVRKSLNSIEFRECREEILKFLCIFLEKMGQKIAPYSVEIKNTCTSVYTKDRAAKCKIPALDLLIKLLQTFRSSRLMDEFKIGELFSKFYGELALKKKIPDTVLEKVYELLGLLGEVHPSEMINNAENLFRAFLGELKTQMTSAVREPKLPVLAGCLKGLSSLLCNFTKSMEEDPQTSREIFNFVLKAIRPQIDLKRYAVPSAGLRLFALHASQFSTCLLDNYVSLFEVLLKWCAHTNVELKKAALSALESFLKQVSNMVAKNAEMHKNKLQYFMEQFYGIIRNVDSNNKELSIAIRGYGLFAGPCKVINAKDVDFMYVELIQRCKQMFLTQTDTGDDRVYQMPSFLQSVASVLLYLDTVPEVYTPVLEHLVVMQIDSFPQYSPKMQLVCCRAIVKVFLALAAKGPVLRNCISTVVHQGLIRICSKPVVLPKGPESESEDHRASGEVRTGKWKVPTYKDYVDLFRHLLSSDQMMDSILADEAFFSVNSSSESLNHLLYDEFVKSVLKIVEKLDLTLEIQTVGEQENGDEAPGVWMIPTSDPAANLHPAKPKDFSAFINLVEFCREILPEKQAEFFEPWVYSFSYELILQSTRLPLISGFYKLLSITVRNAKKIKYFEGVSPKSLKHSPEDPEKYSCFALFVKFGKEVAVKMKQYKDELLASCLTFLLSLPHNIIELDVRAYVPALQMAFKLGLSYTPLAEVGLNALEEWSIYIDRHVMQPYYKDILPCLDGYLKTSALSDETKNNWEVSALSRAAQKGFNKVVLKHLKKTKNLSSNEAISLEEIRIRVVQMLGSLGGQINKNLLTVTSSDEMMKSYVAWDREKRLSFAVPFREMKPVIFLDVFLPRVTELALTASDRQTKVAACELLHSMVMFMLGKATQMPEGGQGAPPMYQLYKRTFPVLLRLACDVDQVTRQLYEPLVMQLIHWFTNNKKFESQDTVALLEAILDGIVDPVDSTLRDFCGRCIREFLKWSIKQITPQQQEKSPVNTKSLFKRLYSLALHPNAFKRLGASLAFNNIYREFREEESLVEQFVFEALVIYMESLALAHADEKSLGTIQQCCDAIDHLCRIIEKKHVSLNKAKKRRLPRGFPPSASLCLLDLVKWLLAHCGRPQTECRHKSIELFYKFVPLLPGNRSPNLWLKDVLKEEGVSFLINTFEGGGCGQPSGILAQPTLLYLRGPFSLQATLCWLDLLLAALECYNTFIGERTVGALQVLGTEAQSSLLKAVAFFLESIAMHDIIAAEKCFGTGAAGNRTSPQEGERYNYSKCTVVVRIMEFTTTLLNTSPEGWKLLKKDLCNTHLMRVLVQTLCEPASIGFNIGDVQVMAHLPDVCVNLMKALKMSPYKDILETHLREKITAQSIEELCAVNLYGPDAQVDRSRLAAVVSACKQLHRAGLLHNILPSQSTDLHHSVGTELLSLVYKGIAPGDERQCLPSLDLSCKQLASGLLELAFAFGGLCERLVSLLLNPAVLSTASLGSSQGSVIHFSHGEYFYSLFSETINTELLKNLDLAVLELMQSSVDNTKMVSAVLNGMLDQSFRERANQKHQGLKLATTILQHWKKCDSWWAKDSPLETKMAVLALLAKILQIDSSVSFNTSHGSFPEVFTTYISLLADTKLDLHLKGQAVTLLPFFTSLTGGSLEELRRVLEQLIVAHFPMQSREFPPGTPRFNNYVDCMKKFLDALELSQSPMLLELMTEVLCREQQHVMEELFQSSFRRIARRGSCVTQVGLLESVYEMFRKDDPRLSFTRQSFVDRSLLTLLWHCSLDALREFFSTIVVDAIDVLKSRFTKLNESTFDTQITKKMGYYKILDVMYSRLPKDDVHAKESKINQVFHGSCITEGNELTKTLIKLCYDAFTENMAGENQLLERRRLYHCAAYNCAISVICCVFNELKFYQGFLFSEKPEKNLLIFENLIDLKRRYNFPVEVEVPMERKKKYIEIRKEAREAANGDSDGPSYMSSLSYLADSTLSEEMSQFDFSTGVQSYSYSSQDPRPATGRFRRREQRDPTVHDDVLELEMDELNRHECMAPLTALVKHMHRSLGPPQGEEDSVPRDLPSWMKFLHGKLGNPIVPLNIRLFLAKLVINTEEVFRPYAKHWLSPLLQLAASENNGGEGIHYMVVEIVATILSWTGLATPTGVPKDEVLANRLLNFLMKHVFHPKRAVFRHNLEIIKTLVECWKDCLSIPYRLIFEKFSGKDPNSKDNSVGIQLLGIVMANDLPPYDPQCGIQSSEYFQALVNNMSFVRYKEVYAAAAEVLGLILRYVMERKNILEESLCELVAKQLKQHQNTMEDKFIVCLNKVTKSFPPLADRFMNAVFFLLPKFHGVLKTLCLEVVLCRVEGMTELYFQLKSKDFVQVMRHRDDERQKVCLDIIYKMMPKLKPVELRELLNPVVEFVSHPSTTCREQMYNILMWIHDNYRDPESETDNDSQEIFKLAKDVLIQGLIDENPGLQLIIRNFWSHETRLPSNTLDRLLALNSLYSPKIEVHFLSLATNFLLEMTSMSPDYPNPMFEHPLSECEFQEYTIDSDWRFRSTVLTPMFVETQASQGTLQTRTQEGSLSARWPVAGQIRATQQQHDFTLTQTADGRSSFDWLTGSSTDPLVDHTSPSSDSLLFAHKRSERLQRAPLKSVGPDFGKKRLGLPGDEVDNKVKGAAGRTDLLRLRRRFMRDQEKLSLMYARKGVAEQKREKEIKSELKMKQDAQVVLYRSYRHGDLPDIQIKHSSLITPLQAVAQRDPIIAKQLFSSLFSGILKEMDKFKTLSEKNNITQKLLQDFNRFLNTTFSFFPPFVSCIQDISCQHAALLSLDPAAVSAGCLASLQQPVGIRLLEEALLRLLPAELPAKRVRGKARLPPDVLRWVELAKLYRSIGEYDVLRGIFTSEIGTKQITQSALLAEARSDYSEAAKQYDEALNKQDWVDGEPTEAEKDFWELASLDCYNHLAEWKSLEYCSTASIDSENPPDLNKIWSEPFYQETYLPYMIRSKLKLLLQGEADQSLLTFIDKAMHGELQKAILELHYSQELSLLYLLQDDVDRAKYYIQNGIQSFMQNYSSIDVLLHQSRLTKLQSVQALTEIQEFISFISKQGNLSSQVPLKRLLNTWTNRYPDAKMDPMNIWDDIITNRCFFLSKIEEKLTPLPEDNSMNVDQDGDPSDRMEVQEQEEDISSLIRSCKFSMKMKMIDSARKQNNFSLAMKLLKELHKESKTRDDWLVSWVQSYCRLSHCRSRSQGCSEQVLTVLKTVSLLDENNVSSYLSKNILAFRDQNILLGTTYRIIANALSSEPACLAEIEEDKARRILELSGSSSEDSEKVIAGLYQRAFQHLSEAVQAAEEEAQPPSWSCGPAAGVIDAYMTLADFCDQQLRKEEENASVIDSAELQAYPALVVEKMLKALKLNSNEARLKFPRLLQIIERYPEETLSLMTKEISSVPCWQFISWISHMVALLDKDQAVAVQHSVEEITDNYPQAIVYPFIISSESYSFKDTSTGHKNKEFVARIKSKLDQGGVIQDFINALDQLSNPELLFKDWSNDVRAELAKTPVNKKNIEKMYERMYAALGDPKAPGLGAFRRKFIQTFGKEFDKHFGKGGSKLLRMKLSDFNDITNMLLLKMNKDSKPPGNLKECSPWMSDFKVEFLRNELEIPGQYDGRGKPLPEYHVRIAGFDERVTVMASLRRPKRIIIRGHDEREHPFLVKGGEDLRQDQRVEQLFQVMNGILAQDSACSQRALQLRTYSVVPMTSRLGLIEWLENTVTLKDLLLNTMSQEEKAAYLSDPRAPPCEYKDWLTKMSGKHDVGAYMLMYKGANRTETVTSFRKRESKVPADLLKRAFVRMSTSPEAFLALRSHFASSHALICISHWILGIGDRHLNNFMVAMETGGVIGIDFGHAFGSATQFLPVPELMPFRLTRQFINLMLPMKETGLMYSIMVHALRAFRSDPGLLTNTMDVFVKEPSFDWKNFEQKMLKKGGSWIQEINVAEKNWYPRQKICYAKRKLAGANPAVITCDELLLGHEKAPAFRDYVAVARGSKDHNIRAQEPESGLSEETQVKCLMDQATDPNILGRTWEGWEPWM

Compound | autophosphorylation, immunoblot for DNA-PKcs phosphoserine 2056 (inhibitor, DNA-enhanced autophosphorylation of Ser2056) | autophosphorylation, immunoblot for DNA-PKcs phosphoserine 2056 [1]
O=c1cc(N2CCOCC2)oc2c(-c3cccc4c3sc3ccccc34)cccc12 | this phosphorylation was sensitive to the DNA-PKcs inhibitor Nu7441 | –
Nc1ncnc2c1ncn2[C@@H]1O[C@H](COP(=O)(O)OP(=O)(O)OP(=O)(O)O)[C@@H](O)[C@H]1O | – | able to support DNA-enhanced autophosphorylation in the presence of either ATP or dATP
Nc1ncnc2c1ncn2[C@H]1C[C@H](O)[C@@H](COP(=O)(O)OP(=O)(O)OP(=O)(O)O)O1 | – | DNA-PK is catalytically active and able to support DNA-enhanced autophosphorylation in the presence of either ATP or dATP

Reference: publication PMC13649775 (2026)
